{"source": "patent US20220193076A1", "about": "“METHODS OF TREATING BREAST CANCER WITH TUCATINIB” (Seagen Inc., priority 2019, published 2022)", "system": "MATE1/2K", "assay": "Phase 1 drug-drug interaction study: effect of tucatinib on metformin pharmacokinetics (Example 1)", "details": "metformin co-administered with tucatinib"}
{"smiles": "CN(C)C(=N)N=C(N)N", "note": "[metformin]", "values": [{"measurement": "Change in metformin CLrenal", "result": "reductions"}]}
